Biological target: Neuromedin-K receptor (Cavia porcellus, UniProt P30098)
Experiment: Ability to displace [3H]senktide succinyl-[Asp9MePhe8]-SP (6-13)} from Tachykinin receptor 3 of guinea pig cerebral cortex membrane
Assay type: tissue-based

By UniProt entry, the sequences of proteins in these tests, tags left out.
UniProt P30098, whole entry: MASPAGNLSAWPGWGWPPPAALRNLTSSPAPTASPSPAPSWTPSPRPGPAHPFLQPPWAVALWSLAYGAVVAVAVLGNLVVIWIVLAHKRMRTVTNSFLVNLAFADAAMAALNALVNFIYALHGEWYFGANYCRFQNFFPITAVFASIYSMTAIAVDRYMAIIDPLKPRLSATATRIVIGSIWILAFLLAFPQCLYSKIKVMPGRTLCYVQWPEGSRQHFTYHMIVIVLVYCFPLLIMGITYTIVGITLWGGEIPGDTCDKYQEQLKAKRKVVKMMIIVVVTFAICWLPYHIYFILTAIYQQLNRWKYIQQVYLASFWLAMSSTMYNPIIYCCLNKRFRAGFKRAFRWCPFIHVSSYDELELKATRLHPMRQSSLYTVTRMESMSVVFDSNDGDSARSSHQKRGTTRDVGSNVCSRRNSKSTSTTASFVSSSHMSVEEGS

IC50: 320 nM
Structure (SMILES): CC(=O)N(C)C1(c2ccccc2)CCN(CCC[C@]2(c3ccc(Cl)c(Cl)c3)CCCN(C(=O)c3ccccc3)C2)CC1 [OSANETANT]
